Consider 1 molecule from paper PMC8878748, “Broad-Spectrum Antiviral Activity of the Amphibian Antimicrobial Peptide Temporin L and Its Analogs” (International Journal of Molecular Sciences, 2022).

The term CC50 denotes the concentration at which the toxic effect on the cells reaches its halfway point. As usually defined, the IC50 is the concentration that inhibits the measured activity by half. For orientation: IC90 means the point of the concentration-response curve where the effect stands at 90%. A lower IC90 goes with an effect from little substance.

Series [1] in a line: MTT cytotoxicity assay on Vero cells. The class given is cell-based. The settings on record: calculated after 2 h of peptide treatment.
The test system of the next series is MeV. The settings on record: 2 h.

Turning to `CCCC[C@H](NC(=O)[C@@H](CC(C)C)NC(=O)[C@H](Cc1ccccc1)NC(=O)[C@H](CCCCN)NC(=O)[C@H](CO)NC(=O)[C@H](Cc1ccccc1)NC(=O)[C@H](Cc1c[nH]c2ccccc12)NC(=O)[C@@H]1CCCN1C(=O)[C@@H](NC(=O)[C@H](Cc1ccccc1)NC(=O)CNC(=O)CNC(=O)[C@@H](N)CSCC(=O)NCCOCCOCCOCCOCCC(=O)O[C@H]1CC[C@@]2(C)C(=CC[C@H]3[C@@H]4CC[C@H]([C@H](C)CCCC(C)C)[C@@]4(C)CC[C@@H]32)C1)C(C)C)C(=O)N[C@@H](CCCNC(=N)N)C(=O)N[C@H](C(=O)N[C@@H](CC(C)C)C(N)=O)[C@@H](C)CC` [TL6.4, H-[Cholesterol-PEG4]-Cys-Gly-Gly-Phe-Val-Pro-Trp-Phe-Ser-Lys-Phe-DLeu-Nle-Arg-Ile-Leu-NH2], the CC50 in series [1] is above 100 µM. For the same molecule, in the series on MeV, it took 28.9 µM to reach half-maximal inhibition (IC50) and the 90% effect level (IC90) was put at 49.9 µM.
